From ChEMBL document CHEMBL1145159 (J Med Chem, 2005)
“And” between values parts separate entries of the source, which are not always exact repeats. Equal entries are not always repeated.

The chains behind the UniProt entries cited, without tags or fusion partners. Where a name states a change or a piece, a line headed by the entry shows the natural chain unless it says otherwise.
UniProt P17787: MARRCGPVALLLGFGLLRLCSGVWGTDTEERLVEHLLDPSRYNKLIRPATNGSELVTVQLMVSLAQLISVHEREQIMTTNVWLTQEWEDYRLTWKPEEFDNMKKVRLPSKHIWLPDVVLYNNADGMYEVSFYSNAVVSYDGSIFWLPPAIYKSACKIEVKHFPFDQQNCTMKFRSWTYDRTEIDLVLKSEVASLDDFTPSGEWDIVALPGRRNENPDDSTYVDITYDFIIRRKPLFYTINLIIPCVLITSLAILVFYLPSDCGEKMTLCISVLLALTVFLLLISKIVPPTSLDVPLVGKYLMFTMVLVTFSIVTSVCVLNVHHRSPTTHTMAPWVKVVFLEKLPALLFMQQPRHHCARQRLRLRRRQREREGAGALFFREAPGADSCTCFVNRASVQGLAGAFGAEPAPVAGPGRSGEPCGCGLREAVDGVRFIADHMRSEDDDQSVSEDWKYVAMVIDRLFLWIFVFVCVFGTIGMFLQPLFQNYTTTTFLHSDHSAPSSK
UniProt P43681: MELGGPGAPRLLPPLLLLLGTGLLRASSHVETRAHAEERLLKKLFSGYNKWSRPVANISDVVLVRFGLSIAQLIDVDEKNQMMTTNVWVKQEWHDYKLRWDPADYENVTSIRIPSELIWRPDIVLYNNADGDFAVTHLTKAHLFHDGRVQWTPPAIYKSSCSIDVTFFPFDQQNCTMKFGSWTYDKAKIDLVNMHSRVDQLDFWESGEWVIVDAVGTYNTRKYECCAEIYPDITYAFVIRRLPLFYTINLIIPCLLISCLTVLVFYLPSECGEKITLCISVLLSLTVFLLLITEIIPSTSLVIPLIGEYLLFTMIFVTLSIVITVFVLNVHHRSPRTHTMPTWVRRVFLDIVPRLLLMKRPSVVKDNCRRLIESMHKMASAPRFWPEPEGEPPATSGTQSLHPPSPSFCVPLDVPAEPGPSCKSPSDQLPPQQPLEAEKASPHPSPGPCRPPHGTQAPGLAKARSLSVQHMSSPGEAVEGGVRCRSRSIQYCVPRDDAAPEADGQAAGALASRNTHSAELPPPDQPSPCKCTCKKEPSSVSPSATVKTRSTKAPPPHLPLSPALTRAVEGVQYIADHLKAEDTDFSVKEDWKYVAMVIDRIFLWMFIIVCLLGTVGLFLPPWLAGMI

Molecular target: Neuronal acetylcholine receptor; alpha4/beta2 (Homo sapiens, UniProt P17787+P43681)
Assay: Inhibitory concentration against Nicotinic acetylcholine receptor alpha4-beta2
Format: protein-complex assay

**Q.** How did the Concentration turn out when `CC(NC(C)(C)C)C(=O)c1cccc(Cl)c1` (stereo unspecified) [BUPROPION] was run?
**A.** 10 µM and 12 µM
